# Apparent affinities of Ab-14 variants for a coronavirus HR2 peptide

The target is the same throughout: PDVDLGDISGINAS, from the HR2 region of SARS-CoV-2 spike.

Parent scFv Ab-14: VH joined to VL by three GGGGS repeats. Changes lie in the light chain CDRs alone.
VH: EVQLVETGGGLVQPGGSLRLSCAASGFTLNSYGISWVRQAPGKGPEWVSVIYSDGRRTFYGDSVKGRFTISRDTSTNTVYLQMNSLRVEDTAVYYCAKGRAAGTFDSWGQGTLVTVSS
VL: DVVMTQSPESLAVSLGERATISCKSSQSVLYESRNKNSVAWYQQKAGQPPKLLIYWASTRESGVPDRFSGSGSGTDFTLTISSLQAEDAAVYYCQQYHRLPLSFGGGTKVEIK

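Library AAYL50 holds single substitutions and randomly drawn double and triple substitutions in the CDRs. The assay is AlphaSeq: two haploid yeast populations carry antibody and antigen on their surface. Pairs that bind mate more often; barcode pairs of the diploids are counted by sequencing. Read counts were normalised to the haploid input and turned into Kd by a linear fit to BCL2-family pairs of known affinity, for each replicate. The assay was run in three technical replicates.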

The parent's light chain CDRs are KSSQSVLYESRNKNSVA, WASTRES, QQYHRLPLS; each variant's own CDRs replace them letter for letter. Each Kd is an estimate from the mating assay, the geometric mean of the replicates in which the pair was seen; lower is stronger. Where no diploid with the target was found in any replicate, the entry reads "no signal": below detection, most likely a poor binder, though not proof of it. As a blank, each scFv also met three strains without target: over library AAYL50, 18% of these pairings were detected, typically at 15 µM and seldom below 970 nM. Parent in this assay: reference entry 4.4 nM, copy in this library 48 nM.

CDR-L1 | CDR-L2 | CDR-L3 | apparent Kd | detected
KSSQSVLYESRNKNTVA | WASTRES | WQYHRLPLS | no signal | 0 of 3
KSSQSVLYESRNKNSVA | WASTRES | QQGHRLPSS | 8.1 nM | 3 of 3
KSNQKVLYESRNKNSVA | WASTRES | QQYHRLPLS | 230 nM | 3 of 3
CSSQSVLYESRNKNSVA | WASTRES | QQYHRLPPS | 180 nM | 3 of 3
KSSQSSLYESRNKNSVA | WASTRES | VQYHLLPLS | 11 µM | 2 of 3
KDSQSVLYESRNKNSVA | WASERES | QQYHRLPLS | 1.5 nM | 3 of 3
KSSQSRLYESRNKNSVS | WASTRES | NQYHRLPLS | no signal | 0 of 3
KSSQSVLYESRNYNDVA | WASTRES | QQYHRLPLI | 550 nM | 3 of 3
KSSQSVLYESRNPNSVA | WAWTRES | QQYPRLPLS | no signal | 0 of 3
KQSQSVLYESRNKNKVA | GASTRES | QQYHRLPLS | 400 nM | 3 of 3
KSSQSVLYEHRNKNFVA | WASTIES | QQYHRLPLS | 730 µM | 1 of 3
KSSQSVLYESRNKNSVA | RASTRES | QQYHRLPLY | 39 nM | 3 of 3
KSSQSVLWESRNKTSVA | WASTRES | QQYHRLPLS | 580 nM | 3 of 3
KSSQSVLYESRNKNSVA | WAWTPES | QQHHRLPLS | 43 µM | 2 of 3
KLSQSVLYESRNKNSVA | WPSTRES | QQYHRLPLS | 250 nM | 3 of 3
KSSQLVLYEHRNKNSVA | WASTRES | QYYHRLPLS | 1.3 µM | 1 of 3
KSSQSVLYESRNKNSVM | WASTHES | QQYHRLPLS | 2.0 mM | 1 of 3
KSSQSNLYESRNKNTVA | WASTRES | QQYHRHPLS | no signal | 0 of 3
KSSQSVLYESRNKSSVA | WASRQES | QQYHRLPLS | 31 µM | 1 of 3
KSSQSVLYEMRNKNSVA | WASTREG | QQYHRLPLG | no signal | 0 of 3
KSSQSVLHESRNKNSVA | AASTRES | QQYMRLPLS | 3.9 nM | 3 of 3
KSSQSVLYRDRNKNSVA | WASTRES | QQYHRLPLE | 110 nM | 3 of 3
KSSQSVLRESRNKNSVA | WASAREV | QQYHRLPLS | 75 nM | 3 of 3
KSSQSVLYTSRNKNSVA | WASTRES | QQYHRLPDS | 450 nM | 3 of 3
KSSQSVLYESRNKYSVA | WASTRES | QKYSRLPLS | 1.8 µM | 1 of 3
KSSQVVLYEHRNKNSVA | LASTRES | QQYHRLPLS | 670 nM | 3 of 3
KSSQSELYESRNKNSVA | WASTRES | QQYHREPLS | 19 nM | 3 of 3
KSRQEVLYESRNKNSVA | SASTRES | QQYHRLPLS | 840 pM | 3 of 3
KSSQSVLYESRNKNSVA | WASTRES | IQYHRRSLS | 850 µM | 1 of 3

The remaining entries, values ahead:

apparent Kd | detected | CDR-L1 | CDR-L2 | CDR-L3
280 nM | 3 of 3 | KSSQSVLYESRNKNSVA | WGSTRES | GQYHRLPLS
no signal | 0 of 3 | KSSQQVLYESRNKNSHA | WASTREG | QQYHRLPLS
400 nM | 2 of 3 | KSAQSVWYESRNKNSVA | WASTRES | QQYHRLTLS
56 nM | 3 of 3 | KSSQSVLYESRTGNHVA | WASTRES | QQYHRLPLS
no signal | 0 of 3 | KSSQSVLYESRNDNSVA | WAHTRES | QTYHRLPLS
no signal | 0 of 3 | KMSQSVLYESRNKNSKA | MASTRES | QQYHRLPLS
160 nM | 3 of 3 | WSSQSVLYESRNKNSVA | WASTRES | QQYHRAPLN
no signal | 0 of 3 | WSNQSVLYESRNKNSVA | WAYTRES | QQYHRLPLS
34 nM | 3 of 3 | KSSQSVLYESRNKNSVA | WASQRFS | QQYHRPPLS
21 nM | 3 of 3 | KSSQSVLYESRSKNAVA | WASTRPS | QQYHRLPLS
no signal | 0 of 3 | KHSQSVLYESRNKNSVA | WASTYES | QQYHRLPLS
990 nM | 3 of 3 | KSSQLVLYESRNKNSVA | WARTREV | QQYHRLPLS
no signal | 0 of 3 | KSSQSWLYESRNKNSVA | WASTRES | WQYHRLGLS
74 nM | 3 of 3 | KSSASVLYASRHKNSVA | WASTRES | QQYHRLPLS
13 nM | 3 of 3 | KSNQSVLLESRNKNSVA | WASTRES | QQYVRLPLS
6.6 µM | 2 of 3 | KCSQSVLYESRNKNSWA | WASTRES | QQYHRLVLS
no signal | 0 of 3 | MSSQSVLYESRNKNSVE | WASTGES | QQYHRLPLS
1.6 µM | 2 of 3 | KSSQRVLYEFRNYNSVA | WASTRES | QQYHRLPLS
no signal | 0 of 3 | KSGQSVLYESRNKNSVA | WMSTRES | QQYWRLPLS
no signal | 0 of 3 | LSSQSVLYYSRNKNSVA | WASSRES | QQYHRLPLS
6.1 nM | 3 of 3 | KSSQSVLYESRNRNSVA | WAETRES | TQYHRLPLS
41 nM | 3 of 3 | NSSQSVLYESRNGNSVA | WASTRES | QQYHRLPLS
25 µM | 1 of 3 | KSFQSVLYESRNKNSVA | WISTRES | QQYHRLPLS
180 nM | 1 of 3 | KSSQSQLYESRNKNSVA | WASTLES | QQYGRLPLS
no signal | 0 of 3 | KSSQSVLYESRNVNSSA | WASTRCS | QQYHRLPLS
24 nM | 3 of 3 | KSSQMVLYESRNKNSVA | WASTRQP | QQYHRLPLS
21 nM | 3 of 3 | KSSQSVLYESRNKQSVA | WASLRES | QQYHRLPLS
no signal | 0 of 3 | KSSQCVLYESRNKNTVA | WPSTRES | QQYHRLPLS
300 nM | 3 of 3 | KSSYSVLYESRNKNSVA | WASTRES | EQYHRLPLA
no signal | 0 of 3 | KSSQSTLKESRNKNSVA | WASTRES | QQYHRNPLS

Excerpt, the final 6 entries:

| CDR-L1 | CDR-L2 | CDR-L3 | apparent Kd | detected |
|---|---|---|---|---|
| KSSQSVLYESRNVNSSA | WASTRCS | QQYHRLPLS | no signal | 0 of 3 |
| KSSQMVLYESRNKNSVA | WASTRQP | QQYHRLPLS | 24 nM | 3 of 3 |
| KSSQSVLYESRNKQSVA | WASLRES | QQYHRLPLS | 21 nM | 3 of 3 |
| KSSQCVLYESRNKNTVA | WPSTRES | QQYHRLPLS | no signal | 0 of 3 |
| KSSYSVLYESRNKNSVA | WASTRES | EQYHRLPLA | 300 nM | 3 of 3 |
| KSSQSTLKESRNKNSVA | WASTRES | QQYHRNPLS | no signal | 0 of 3 |

Values reported by Engelhart et al. 2022, doi:10.1038/s41597-022-01779-4 (FLAb copy).